Test results as given in ChEMBL document CHEMBL1938349 (Bioorg Med Chem, 2012).

By UniProt entry, the sequences of proteins in these tests, tags left out.
UniProt P30729, whole entry: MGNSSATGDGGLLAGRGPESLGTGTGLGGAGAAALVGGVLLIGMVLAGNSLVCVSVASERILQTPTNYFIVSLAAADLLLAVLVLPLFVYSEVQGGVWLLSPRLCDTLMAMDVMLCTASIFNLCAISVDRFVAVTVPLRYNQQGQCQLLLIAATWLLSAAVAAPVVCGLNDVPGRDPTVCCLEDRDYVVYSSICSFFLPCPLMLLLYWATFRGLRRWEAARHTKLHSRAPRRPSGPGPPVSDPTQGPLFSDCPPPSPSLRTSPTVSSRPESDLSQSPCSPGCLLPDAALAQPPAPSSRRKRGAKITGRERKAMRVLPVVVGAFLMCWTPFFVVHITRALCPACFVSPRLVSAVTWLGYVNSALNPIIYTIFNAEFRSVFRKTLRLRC
UniProt P35462, whole entry: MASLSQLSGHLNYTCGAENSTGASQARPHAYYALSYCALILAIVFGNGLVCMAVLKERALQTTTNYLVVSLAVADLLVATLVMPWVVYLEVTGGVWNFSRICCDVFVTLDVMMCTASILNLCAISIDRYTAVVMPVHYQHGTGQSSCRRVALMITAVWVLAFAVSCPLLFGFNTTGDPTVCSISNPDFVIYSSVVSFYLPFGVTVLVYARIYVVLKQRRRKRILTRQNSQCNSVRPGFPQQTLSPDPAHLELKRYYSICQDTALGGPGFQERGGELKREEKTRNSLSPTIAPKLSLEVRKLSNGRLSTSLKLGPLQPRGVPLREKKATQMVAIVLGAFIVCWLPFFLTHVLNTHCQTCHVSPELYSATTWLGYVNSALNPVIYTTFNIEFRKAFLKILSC
UniProt P28223, whole entry: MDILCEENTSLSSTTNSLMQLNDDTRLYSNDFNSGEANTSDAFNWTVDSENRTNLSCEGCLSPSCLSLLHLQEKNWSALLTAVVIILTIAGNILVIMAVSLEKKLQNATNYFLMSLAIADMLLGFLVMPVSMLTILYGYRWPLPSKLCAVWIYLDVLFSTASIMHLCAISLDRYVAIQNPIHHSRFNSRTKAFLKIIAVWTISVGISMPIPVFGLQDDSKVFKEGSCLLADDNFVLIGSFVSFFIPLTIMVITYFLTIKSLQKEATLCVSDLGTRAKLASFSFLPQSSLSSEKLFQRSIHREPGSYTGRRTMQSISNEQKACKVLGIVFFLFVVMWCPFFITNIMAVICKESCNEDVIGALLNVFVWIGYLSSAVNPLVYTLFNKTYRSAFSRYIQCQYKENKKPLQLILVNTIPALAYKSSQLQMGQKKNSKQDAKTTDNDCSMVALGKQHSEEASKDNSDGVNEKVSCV
UniProt P18825, whole entry: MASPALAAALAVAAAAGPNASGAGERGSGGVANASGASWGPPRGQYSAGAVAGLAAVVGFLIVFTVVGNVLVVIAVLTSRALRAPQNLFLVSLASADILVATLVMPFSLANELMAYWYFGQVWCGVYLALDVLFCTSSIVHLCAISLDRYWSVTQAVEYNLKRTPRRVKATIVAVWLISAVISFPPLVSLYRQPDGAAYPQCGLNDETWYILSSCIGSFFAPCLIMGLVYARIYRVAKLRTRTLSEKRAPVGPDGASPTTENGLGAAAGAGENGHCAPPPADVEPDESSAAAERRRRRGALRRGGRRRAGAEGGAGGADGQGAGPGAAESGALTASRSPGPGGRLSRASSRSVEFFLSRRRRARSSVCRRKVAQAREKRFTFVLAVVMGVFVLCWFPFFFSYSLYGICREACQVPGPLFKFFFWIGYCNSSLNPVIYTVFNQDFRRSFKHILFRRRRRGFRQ

Legend:
D(4) dopamine receptor = D(4) dopamine receptor (Rattus norvegicus, UniProt P30729); test: Displacement of [3H]N-methylspiperone from rat dopamine D4 receptor by liquid scintillation counting
D(3) dopamine receptor = D(3) dopamine receptor (Homo sapiens, UniProt P35462); test: Displacement of [3H]N-methylspiperone from human dopamine D3 receptor by liquid scintillation counting
[1] = biological target: 5-hydroxytryptamine receptor 2A (Homo sapiens, UniProt P28223); test: Displacement of [3H]DOI from human 5HT2A receptor after 1 hr by liquid scintillation counting
[2] = biological target: Alpha-2C adrenergic receptor (Homo sapiens, UniProt P18825); test: Displacement of [3H]clonidine from human Alpha-2C receptor by liquid scintillation counting
[3] = biological target: T1, 5-hydroxytryptamine receptor 2C (Rattus norvegicus, UniProt P08909); test: Displacement of [3H]mesulergine from rat 5HT2C receptor by liquid scintillation counting
T1 sequence (P08909 whole entry): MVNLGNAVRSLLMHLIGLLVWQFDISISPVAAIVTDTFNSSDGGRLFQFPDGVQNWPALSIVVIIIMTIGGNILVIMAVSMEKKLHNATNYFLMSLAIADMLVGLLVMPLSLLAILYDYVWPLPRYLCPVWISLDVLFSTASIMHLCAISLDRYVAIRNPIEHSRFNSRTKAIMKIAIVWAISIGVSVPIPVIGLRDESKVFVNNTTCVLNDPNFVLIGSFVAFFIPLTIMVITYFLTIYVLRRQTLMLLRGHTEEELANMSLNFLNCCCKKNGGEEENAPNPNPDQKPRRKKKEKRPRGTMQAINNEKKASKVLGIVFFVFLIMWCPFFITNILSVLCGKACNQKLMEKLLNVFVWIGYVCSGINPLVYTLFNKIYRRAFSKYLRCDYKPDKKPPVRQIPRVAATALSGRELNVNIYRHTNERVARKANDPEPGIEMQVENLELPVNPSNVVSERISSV

Ki [3] [nM] | Compound | Ki (D(4) dopamine receptor) [nM] | Ki (D(3) dopamine receptor) [nM] | Ki [1] [nM] | Ki [2] [nM]
– | OC1(c2ccc(Cl)cc2)CCN(CCCOc2ccc(F)cc2)CC1 | 2.4 | – | – | –
– | OC1(c2ccc(Cl)cc2)CCN(CCCSc2ccc(F)cc2)CC1 | 248 | 49 | 72 | –
– | Fc1ccc(OCCCN2CCN(c3ccccn3)CC2)cc1 | – | – | – | 194
4130 | O=C(CCCN1CCN(c2ncccn2)CC1)c1ccc(F)cc1 | 6.5 | – | – | –
